# Binding of CDR-mutated scFvs to a peptide of the spike HR2 region

From the AlphaSeq antibody data of Li et al. 2023 (doi:10.1038/s41467-023-39022-2), copy in the FLAb collection.

The target is the same throughout: PDVDLGDISGINAS, from the HR2 region of SARS-CoV-2 spike.

Parent scFv Ab-14: VH joined to VL by a (GGGGS)3 linker. Changes lie in the light chain CDRs alone.
VH: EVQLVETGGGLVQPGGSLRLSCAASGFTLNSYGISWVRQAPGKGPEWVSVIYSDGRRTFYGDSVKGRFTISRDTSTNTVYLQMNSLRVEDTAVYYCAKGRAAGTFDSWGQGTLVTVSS
VL: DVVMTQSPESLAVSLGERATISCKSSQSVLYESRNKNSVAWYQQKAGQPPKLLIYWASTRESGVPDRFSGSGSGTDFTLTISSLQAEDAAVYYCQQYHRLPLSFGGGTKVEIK

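The starting antibody came from a phage panning campaign against this peptide. Designed CDR sequences, proposed from the first random library and measured here. Several design methods are mixed in this list. In AlphaSeq, yeast of one mating type display the scFv and yeast of the other type display the target. Pairs that bind mate more often; barcode pairs of the diploids are counted by sequencing. A regression on co-assayed BCL2-family reference pairs converts the normalised counts of each replicate to an apparent Kd. There are six technical replicates.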

Each variant is given by its three light chain CDRs, as the data file delimits them; those of the parent are KSSQSVLYESRNKNSVA, WASTRES, QQYHRLPLS.
Scale: log10 of Kd in nM, estimated from mating counts; low values are strong binders.
The mean shown is taken over the replicates in which the pair was detected.
"not detected" means that the variant was in the library but no mating with the target was seen in any replicate; the authors take this as a sign of poor binding, and no number exists.
The authors' rule: three or more of the six replicates give a measured affinity, fewer mean a poor binder.

CDR-L1 | CDR-L2 | CDR-L3 | mean log10 Kd (nM) | seen in
HSSQSVPYESRNKNSMA | WGSTRES | QQYHRLPLS | 0.64 | 6 of 6
KSSFSWLYESRNKNSVA | AASTRES | YQYHRLPLS | 1.35 | 2 of 6
KLSQSELYESRNKNSVA | GASTRMS | QQYHRLPLS | 0.27 | 6 of 6
KVSEFMRGLMGRKDSIA | DNETRNN | QQYDRLPLS | 1.59 | 5 of 6
KFSQSVLYESTTQNSVA | NASTRES | QQYHRLPLS | 1.52 | 2 of 6
KLRQSTLYESRNKNSVA | HASTRES | QQYHRLPLS | 0.38 | 6 of 6
KSSQAVPYESLNKNSVA | AASTRES | QQYHRLPLS | 0.01 | 6 of 6
KLQQSTLYESRNKNSVA | NASTRMS | QQYHRLPLS | -0.30 | 6 of 6
KLSQSVLYESRNKNSVA | WASTRES | QQYHRLPLC | 0.08 | 6 of 6
MISQLTNMGTFAINSVA | QASVRNE | QQYDRLPLI | 0.86 | 6 of 6
KLQQWWLYESRMKNNVA | NASTRED | QQYHRLPLS | 1.55 | 6 of 6
TISSSMRYESSLKNAIA | NAQTRES | QQYHRLPIS | 0.10 | 6 of 6
KLQFLELQESRNKNSVA | SASTRES | QQYHRLPLS | -0.04 | 6 of 6
KMSISMLGESRNKNSVA | EASTRES | QQYHRLPLS | -0.30 | 6 of 6
ALQQLELYGSRNKNSVA | NASTRED | QQYHRLPLS | 0.28 | 6 of 6
KSSQSVLYEFRNHNSVA | WASTRES | QQYERLPLS | 1.88 | 1 of 6
KLDPSDLGESRNKNAVA | QASTREI | QQYHRLPLS | -0.10 | 6 of 6
HINDMLLGQEKIAHSIA | NTGVTSR | QQYQRLPLI | 0.74 | 6 of 6
KMRQSWWYESRMKWSVA | NASERES | QQYHRLPLS | 1.15 | 6 of 6
KLSQSVLYEMRNKNSVA | NASTRCS | QQYHRLPLS | 0.69 | 6 of 6
KMSQSWLGQDWNKNSVA | EASQRES | QQYHRLPLS | 0.03 | 6 of 6
QLAVNRLMEYTMGDAIA | GKTLRVD | QQYARLPLS | 0.28 | 6 of 6
KLSQSVLYESRNKNSVA | EGSTRES | QQYHRLPLS | -0.54 | 6 of 6
KLQQSELPESRNKNSVA | EASLRLL | QQYHRLPLS | -0.23 | 6 of 6
KSSQSELTESRNKNSVA | DASTRES | QQYHRLPLS | 0.20 | 6 of 6
KSSQSNLDGSRNKNSVA | KASTRES | QQYIRLPLS | 1.05 | 6 of 6
KLSQSTEYESRMKNSVA | NASYREQ | QQYHRLPLS | 0.15 | 6 of 6
KLSQSHLYESRNKNSVA | NASTREE | QQYHRLPLS | -0.18 | 6 of 6
KSPQSQLYESRNKNSVA | NASTRES | QQYHRLPLS | -0.05 | 6 of 6
RIQMGDLEGRTAWNSIA | DGEEIYR | QQYVRLPLY | 1.75 | 6 of 6
KLSQSQEYLSRNSNAVA | NASQRLQ | QQYHRLPLS | 0.51 | 6 of 6
KLSQSGLYESRNKNSVA | NASTRLS | QQYHRLPLS | 0.10 | 6 of 6
KLSQMDLYESRMSNSVA | MASTRYV | QQYHRLPLS | 0.87 | 6 of 6
KISQSDLYESRNKNSVA | WASTREK | EQYHRLPLS | 0.96 | 6 of 6
KLSGSWLYQSRNSNAVA | EASQREQ | QDYHRLPLS | 0.36 | 6 of 6
KLSFMVMEESRNKNSVA | SASLREW | QQYHRLPLS | 2.24 | 1 of 6
SIETLSQGMRLNWSAVA | EAHTLVQ | QYYARLPLS | 2.14 | 1 of 6
KLSQSNLYESRNKNSVA | NASTRYS | QQYHRLPLS | 0.11 | 6 of 6
MFSQLFMYGSRNYNSVA | QASTREK | QQYDRLPLI | 1.54 | 3 of 6
KLSQSDLYEMRNKNSVA | EAQTREQ | QQYHRLPLS | -0.16 | 6 of 6
KSSQSVLYESRNKNSVA | SASTRES | QQYHRLPLM | 1.34 | 6 of 6
KSSQSVLYEERNKNSVA | DASTREQ | QQYNRLPDS | 1.90 | 2 of 6
SMETHSQDRRLDWSAVA | EAHTIYQ | QQYARLPLS | not detected | 0 of 6
HISMMVGTKGYNKKSVA | NAETRED | QQYHRLPLS | -0.08 | 6 of 6
KLYQSELYESRNKNSVA | NASYRES | QQYHRLPLS | 0.22 | 6 of 6
KVSQSKLYESRNKNSVA | DASQRES | QQYHRLPLS | 0.72 | 6 of 6
MIEEGQAGENKNSSNIA | SQDQKTD | QQYQRLPLI | 0.74 | 6 of 6
SLSHMSEGSKNEEASIA | STELGMA | QQYARLPLA | not detected | 0 of 6
KLSQSELYESRNKNSVA | NASTRLQ | QQYHRLPLS | -0.04 | 6 of 6
KSSISYLYESMNKNSVA | QGSTRES | QQYHRLPLS | 0.00 | 6 of 6
TVSQVHEMLSRNKNSVA | DANTRPS | QQYDRLPLS | 0.27 | 6 of 6
RLSASSGIQSVERNSVA | QNSTRES | QQYDHLPLS | 2.53 | 3 of 6
KLPQSVLYESRNKNSVA | GASTRES | QQYHRLPLS | -0.16 | 6 of 6
KQSQSVLQGERNKNSVA | NASYRLS | QQYHRLPLS | 0.38 | 6 of 6
MIAESVGYQSRQKNNVA | DNSTRES | QCYDRLPLS | 2.80 | 1 of 6
KSQQSWLYESRNKNSVA | GASAREV | QQYHRLPLS | 0.09 | 6 of 6
QLYAVQDMTSKNKNSVA | EQSTREN | QQYHRLPLS | 1.15 | 6 of 6
KVSGEMLYESRNKNSVA | HASERES | QDYHRLPLQ | 0.02 | 6 of 6
KVSQSVLYESRMKNSVA | DASTRCS | QQYHRLPLT | 0.29 | 6 of 6
KSSKSVDYESRNKNSVA | NASTRES | QQYHRLPLS | 0.27 | 6 of 6
TISQSFMMENQFKNSVA | QVSTRES | QCYDRLPLS | 1.72 | 6 of 6
TLAQGIYEGVRKSNNVA | EASHVTD | QQYERLPLE | -0.07 | 6 of 6
KSSQSYLYESMNKNSVA | NASTRES | QQYHRLPLS | -0.04 | 6 of 6
KLSQGTYGLTGHASNVA | HDEMRWA | QQYDKLPLI | not detected | 0 of 6
KLPQSVLYESRNKNSVA | HASTRED | QSYHRLPLS | -0.24 | 6 of 6
KQQFSSGMEQRNKNSVA | SASTRCS | QQYHRLPLS | 0.92 | 6 of 6
MLSDLVKMGVRNTSSVA | DNSTRGS | QQYDRLPLS | 1.75 | 6 of 6
KMETHSQDNRLDWSAVA | EAQTIYQ | QQYARLPLS | 0.84 | 6 of 6
KSSQSVDYESRNKNGIA | WASTRFS | QQYHRLPLS | 1.73 | 4 of 6
KLSQSWLYESRNSNSVA | DASTRLS | QQYHRLPLS | 0.10 | 6 of 6
KLSQSVLYESRMKNNVA | DASTRES | QQYHRLPLS | 0.31 | 6 of 6
WLSMSVMQESRNKNAVA | SASTREL | QQYHRLPLS | 0.57 | 6 of 6

Excerpt, the final 7 entries:

{"CDR-L1": "KQQFSSGMEQRNKNSVA", "CDR-L2": "SASTRCS", "CDR-L3": "QQYHRLPLS", "mean log10 Kd (nM)": "0.92", "seen in": "6 of 6"}
{"CDR-L1": "MLSDLVKMGVRNTSSVA", "CDR-L2": "DNSTRGS", "CDR-L3": "QQYDRLPLS", "mean log10 Kd (nM)": "1.75", "seen in": "6 of 6"}
{"CDR-L1": "KMETHSQDNRLDWSAVA", "CDR-L2": "EAQTIYQ", "CDR-L3": "QQYARLPLS", "mean log10 Kd (nM)": "0.84", "seen in": "6 of 6"}
{"CDR-L1": "KSSQSVDYESRNKNGIA", "CDR-L2": "WASTRFS", "CDR-L3": "QQYHRLPLS", "mean log10 Kd (nM)": "1.73", "seen in": "4 of 6"}
{"CDR-L1": "KLSQSWLYESRNSNSVA", "CDR-L2": "DASTRLS", "CDR-L3": "QQYHRLPLS", "mean log10 Kd (nM)": "0.10", "seen in": "6 of 6"}
{"CDR-L1": "KLSQSVLYESRMKNNVA", "CDR-L2": "DASTRES", "CDR-L3": "QQYHRLPLS", "mean log10 Kd (nM)": "0.31", "seen in": "6 of 6"}
{"CDR-L1": "WLSMSVMQESRNKNAVA", "CDR-L2": "SASTREL", "CDR-L3": "QQYHRLPLS", "mean log10 Kd (nM)": "0.57", "seen in": "6 of 6"}

Of ten entries with the parent sequence, four were seen in most replicates (averages 0.34 to 2.37), three in one and three in none, so single entries are noisy.
Nonspecific signal, from three strains lacking the peptide, appeared in 4% of pairings of all light chain designs, centred on 2.64 (5% of these signals below 1.59); values are not corrected for it.
Values of this round are not directly comparable with the first-round values of the same sequences.